{"source": "paper PMC8553517", "about": "(ACS infectious diseases, 2021)", "origin": "cited, not measured here", "key": {"[1]": {"conditions": "microsomes, 2 h; cited from earlier work"}, "[2]": {"conditions": "microsomes, 2 h; cited from earlier work", "remark": "listed apart in the source"}}, "data": [{"smiles": "CC(C)Oc1cc(NC(=N)c2ccccn2)ccc1-c1ccc(-c2ccc(NC(=N)c3ccccn3)cc2OC(C)C)o1", "note": "[Compound 1]", "values": [{"measurement": "Human liver microsome percent remaining", "setting": "[1]", "result": ">50", "unit": "% after 120 min^c"}, {"measurement": "Mouse liver microsome percent remaining", "setting": "[2]", "result": ">50", "unit": "% after 120 min^c"}]}]}
